In US11448657B2, “Methods and kits for assessing Heparanase procoagulant activity, compositions comprising Heparanase, and methods for the treatment of coagulation-related disorders” (RAMBAM MED-TECH, priority 2011, dated 2022):

Assay: Water solubility of the peptides
Assay type: physicochemical

Ac-Ile Cys Leu Leu Pro Leu Asp Tyr Gly Pro Cys Arg Ala Leu (ICLLPLDYGPCRAL; N-terminal acetyl; ACT_SITE (1)..(1)) [Peptide 5-Ac]
water solubility compared to non-acetylated counterpart: more water soluble than their corresponding non acetylated counterparts
